In patent US20250011881A1, “MYC-HSF1 DUAL AMPLIFICATION AS A BIOMARKER FOR CANCER TREATMENT” (The Trustees of Indiana University, priority 2023, published 2025):

Tested on: ovarian cancer cells with (OVCAR8, OVCAR4) or without (OVSAHO, CAOV3) MYC-HSF1 amplification
Assay: Epigenetic inhibitor drug screen, cell viability (Cell Titer Blue)
Format: cell-based

Sephin1
Non Amp - AMP (POC) 10 uM: 2.094 POC
